Measured affinities in a library of Ab-91 heavy chain variants

All variants were tested on one target, the spike HR2 peptide PDVDLGDISGINAS (SARS-CoV-2).

Ab-91 is the parent antibody, in scFv form: VL, then the linker GGGGSGGGGSGGGGS, then VH. The light chain is unchanged in all variants.
VL: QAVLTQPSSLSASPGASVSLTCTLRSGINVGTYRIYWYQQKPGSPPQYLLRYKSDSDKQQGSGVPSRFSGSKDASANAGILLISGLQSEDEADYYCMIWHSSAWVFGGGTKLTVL
VH: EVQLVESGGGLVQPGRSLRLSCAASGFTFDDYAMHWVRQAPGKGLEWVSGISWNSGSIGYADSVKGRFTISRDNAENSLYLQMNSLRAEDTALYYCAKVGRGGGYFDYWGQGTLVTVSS

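The starting antibody came from a phage panning campaign against this peptide. The library (AAYL51) carries one to three amino acid substitutions per variant, with no insertions or deletions. AlphaSeq pools MATa yeast showing the antibodies with MATalpha yeast showing the peptide. The frequency of each diploid, read from paired DNA barcodes, reflects how well the two displayed proteins bind. A regression on co-assayed BCL2-family reference pairs converts the normalised counts of each replicate to an apparent Kd. Each pool was mated in three replicate cultures.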

The parent's heavy chain CDRs are GFTFDDYAMH, GISWNSGSIGYADSVK, VGRGGGYFDY; each variant's own CDRs replace them letter for letter. The read-out is the apparent dissociation constant on a log10 scale (nM): the lower, the stronger. A mean of the replicates is given; it leaves out those without a signal. Where no diploid with the target was found in that replicate, the entry reads "n.d.": below detection, most likely a poor binder, though not proof of it.

CDR-H1,CDR-H2,CDR-H3,log10 Kd (nM) by replicate,mean log10 Kd (nM),signal with controls
GNTFDDYAMH,GISWNSKSIGYADSVK,VGRGGGYFDY,n.d. / n.d. / n.d.,n.d.,0 of 9
LFTFDDVAMH,GISWNSGSIGYTDSVK,VGRGGGYFDY,n.d. / n.d. / n.d.,n.d.,2 of 9 (4.04)
GFTFDDYAMH,GISWNSGSIGYADWVK,VGCGIGYFDY,3.37 / n.d. / n.d.,3.37,1 of 9 (4.26)
GFTFDDYAMH,GISRNSGSIGYADSVK,LGRGGGYFDY,4.53 / 4.89 / 3.33,4.25,6 of 9 (4.85)
DFTFDDYAMH,GISWNSGHRGYADSVK,VGRGGGYFDY,n.d. / n.d. / n.d.,n.d.,1 of 9 (1.80)
GFTFDDYAMH,GISWNSGSIGYADSVK,VGRTGGYWDR,4.00 / 4.41 / 5.01,4.47,7 of 9 (5.41)
GFTFDDYAMH,GISWNSGYIGYADSVK,VGEGGYYFDY,3.62 / 3.69 / n.d.,3.66,5 of 9 (4.25)
IFTFDDYAMH,GISWNSGSIGYADSVK,WGRGGGPFDY,n.d. / n.d. / n.d.,n.d.,3 of 9 (4.14)
GFTFDDYAPH,GISWNSGSISYADSVK,VGRGGGYFDG,4.36 / 5.22 / 4.85,4.81,1 of 9 (4.65)
GFTFGDDAMH,GISWDSGSIGYADSVK,VGRGGGYFDY,n.d. / n.d. / n.d.,n.d.,0 of 9
GFTFDDYAMH,GIIWNSFSIGYADSVK,DGRGGGYFDY,n.d. / n.d. / n.d.,n.d.,1 of 9 (3.42)
GFTFDDFAMH,GISWNSGSIGYADSVK,VCRGGGYFTY,n.d. / 4.20 / n.d.,4.20,0 of 9
GFTFDDYAMH,GISGNSGSIGYADSVK,VGRGGGYFDY,n.d. / n.d. / n.d.,n.d.,0 of 9
GFTFDWYAMH,DISWNSGSIGYADSVK,VGRGGGYFDY,n.d. / n.d. / 2.92,2.92,1 of 9 (4.72)
GFTFDDYAMW,GISWNSASIGYTDSVK,VGRGGGYFDY,n.d. / n.d. / n.d.,n.d.,1 of 9 (3.06)
GFTFDDYAVH,GISWNSGSIGYEDSVA,VGRGGGYFDY,n.d. / n.d. / n.d.,n.d.,0 of 9
GFTFDDKWMH,GISSNSGSIGYADSVK,VGRGGGYFDY,n.d. / 4.43 / n.d.,4.43,3 of 9 (3.78)
GFTFDDYANH,AISWNSGSIGDADSVK,VGRGGGYFDY,n.d. / 5.55 / n.d.,5.55,1 of 9 (4.56)
GFTRDDYAMH,GNSWNSGSIGYADSVK,VLRGGGYFDY,n.d. / n.d. / 3.13,3.13,0 of 9
GHTFKDYAMH,GISWNSGSIGYADSQK,VGRGGGYFDY,n.d. / 5.00 / n.d.,5.00,1 of 9 (4.71)
GHTFDDIAMH,GISWNSGSIGYADSVK,VMRGGGYFDY,n.d. / n.d. / 4.66,4.66,2 of 9 (4.27)
GFTFIDYAMH,GISWNSGGIGYADSVK,VGRGGGEFDY,n.d. / n.d. / n.d.,n.d.,0 of 9
GFTFHDYAMH,GISWNSGSIGYADSVM,VGRGGKYFDY,0.94 / 0.90 / 0.12,0.65,2 of 9 (5.00)
GFTFDDYAMH,GISWNSGSFGYASSVK,VGRCGGYFDY,3.22 / 3.11 / 2.63,2.99,4 of 9 (4.79)
GGTFDPYAMH,GASWNSGSIGYADSVK,VGRGGGYFDY,n.d. / n.d. / n.d.,n.d.,1 of 9 (4.51)
GFTFDDNAMH,GISWNSGSIGYADSEK,VGRGGIYFDY,n.d. / n.d. / n.d.,n.d.,0 of 9
GSTFDDYAMH,GASWQSGSIGYADSVK,VGRGGGYFDY,4.68 / n.d. / n.d.,4.68,0 of 9
GFTFDDYARH,GILWNPGSIGYADSVK,VGRGGGYFDY,3.82 / n.d. / n.d.,3.82,2 of 9 (4.08)
GFTFDDYATH,GISWNSGSIKYADSVK,VGRGGSYFDY,n.d. / 5.70 / n.d.,5.70,1 of 9 (4.32)
GFTFDAYAMT,GISWNSGSIGYADSVK,VGRGGGNFDY,n.d. / n.d. / n.d.,n.d.,2 of 9 (4.56)
GFTFDDYAMN,EISWNSGSIGYADSVK,VGRFGGYFDY,5.23 / n.d. / 4.18,4.71,2 of 9 (3.60)
GFTFDDYNMH,GISWNSGSHGYAYSVK,VGRGGGYFDY,4.17 / 5.93 / n.d.,5.05,3 of 9 (4.43)
GFTFDDMAHH,GISWNSGSIGYADSVK,VHRGGGYFDY,n.d. / 5.69 / n.d.,5.69,1 of 9 (5.78)
GFTFDLYAMH,GISWNSGSIEYADSPK,VGRGGGYFDY,n.d. / n.d. / n.d.,n.d.,0 of 9
GVTFDDYAMH,GISWNSLSIGYADSVK,VGRGGGEFDY,n.d. / n.d. / n.d.,n.d.,0 of 9
GFTFDDFAMC,GISWNSGSIGYADSVK,VGRGGGYFDY,1.15 / 1.35 / 0.88,1.12,2 of 9 (5.10)
GFTFDDYAMH,GISWNAGSIGYADSVK,VGRGGGYFDY,4.79 / 6.07 / n.d.,5.43,3 of 9 (4.18)
GFTFDDYAMD,GISWNSVSIGYADSVK,VGRGGGYFRY,n.d. / n.d. / n.d.,n.d.,2 of 9 (3.46)
GFTQDDYAMH,GISWNSGEMGYADSVK,VGRGGGYFDY,n.d. / n.d. / n.d.,n.d.,3 of 9 (4.49)
GFTFDDYAMH,GISWNSGSISYADSRK,KGRGGGYFDY,4.76 / n.d. / n.d.,4.76,1 of 9 (4.69)
GFTFDVYAAH,GISWNSGSIGYADSVK,VGRWGGYFDY,n.d. / n.d. / n.d.,n.d.,1 of 9 (3.07)
GFTFDDYARH,GISSNSGSIGYADWVK,VGRGGGYFDY,n.d. / n.d. / n.d.,n.d.,3 of 9 (4.27)
GFTFDDYAMH,GISWNSGSIGYADSVK,VTRGGGYFYR,n.d. / n.d. / n.d.,n.d.,2 of 9 (3.39)
GFTFFDLAMH,GISWNSGSIGYADSVK,VGRGGGYFDQ,4.02 / n.d. / n.d.,4.02,2 of 9 (4.17)
GFTFDDYAMH,GISWNTGSIGYCDSVK,VGEGGGYFDY,n.d. / n.d. / n.d.,n.d.,0 of 9
GFTFDDYAMR,GISWNSGSIGYADSVK,VGTRGGYFDY,n.d. / n.d. / n.d.,n.d.,4 of 9 (4.97)
GRTFDDYAMH,GISWNEGGIGYADSVK,VGRGGGYFDY,5.07 / 5.26 / 5.38,5.24,8 of 9 (5.25)
GLTFDDYAMH,GIGWNSGSIGYADSVK,VGRGGGYFDY,n.d. / n.d. / n.d.,n.d.,0 of 9
GFTFDLYAMH,GISWNTGSIGYADSVK,VGRGGGYFDY,4.11 / n.d. / n.d.,4.11,3 of 9 (4.94)
GFTFDDYAMH,LISWNSGSIGKADSVK,VGRGGGYFDY,n.d. / n.d. / n.d.,n.d.,1 of 9 (3.00)
SFTFDDYAMH,GISWNSGSIIYADSVK,VGRNGGYFDY,n.d. / n.d. / n.d.,n.d.,3 of 9 (5.26)
GFTFDDYAMH,GISWPSGSIGYADSIK,VGRGGGYTDY,4.41 / 4.19 / n.d.,4.30,3 of 9 (4.32)

For reference, 5 entries of the list once more:

| CDR-H1 | CDR-H2 | CDR-H3 | log10 Kd (nM) by replicate | mean log10 Kd (nM) | signal with controls |
|---|---|---|---|---|---|
| GFTFDVYAAH | GISWNSGSIGYADSVK | VGRWGGYFDY | n.d. / n.d. / n.d. | n.d. | 1 of 9 (3.07) |
| GFTFDDYAMH | LISWNSGSIGKADSVK | VGRGGGYFDY | n.d. / n.d. / n.d. | n.d. | 1 of 9 (3.00) |
| GSTFDDYAMH | GASWQSGSIGYADSVK | VGRGGGYFDY | 4.68 / n.d. / n.d. | 4.68 | 0 of 9 |
| GFTFDDYATH | GISWNSGSIKYADSVK | VGRGGSYFDY | n.d. / 5.70 / n.d. | 5.70 | 1 of 9 (4.32) |
| GFTFDAYAMT | GISWNSGSIGYADSVK | VGRGGGNFDY | n.d. / n.d. / n.d. | n.d. | 2 of 9 (4.56) |

Three control strains display no target. For library AAYL51, 21% of the pairings with them gave a signal, with a median of 4.54 and one signal in twenty below 3.26, so weak values seen in few replicates may be background. The control count says in how many pairings with the empty strains this scFv gave a signal, with their mean in brackets. Parent in this assay: reference entry 1.86, copy in this library 0.88.

Source: Engelhart et al. 2022 (doi:10.1038/s41597-022-01779-4), MIT Lincoln Laboratory and A-Alpha Bio; data file from the FLAb repository.